PubChem BioAssay AID588334 (Broad Institute, 2011)
This is a selection; strong and weak results do not stand in their true shares. Some of these compounds have results that are not shown, active ones among them. The source made the active and inactive calls.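 The calls were made as follows: active = mean activation of at least 80% with every replicate also reaching 80%; inconclusive = mean reaches 80% but some replicate falls short; inactive = the rest.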

assay: MITF-driven TRPM1 luciferase induction in melanoma cells – cell-based, SK-MEL-5, single point, primary screen (AID 588334); details: SK-MEL-5 TRPM1-promoter luciferase, 24 h; at 12.5 µM; stronger effect = higher value; % of positive control, neutral wells = 0;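 also: 0% = neutral control wells and 100% = parthenolide positive control wells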

Row | SMILES | activation
1 | O=C(NCC1(N2CCCCC2)CCCCC1)c1cc(F)c(F)cc1Cl | inactive: 12.2%
2 | C=CCN1CCN(CCOC(=O)C(O)(c2ccccc2)c2ccccc2)CC1 | inactive: -6.94%
3 | O=C(NCC1(N2CCCCC2)CCCCC1)c1cccc(Br)c1 | inactive: 14.1%
4 | CCN1CCCC(OC(=O)C2(O)c3ccccc3C=Cc3ccccc32)C1 (stereo not given) | inactive: -0.008%
5 | Cc1cc(C(=O)NCC2(N3CCCCC3)CCCCC2)ccc1[N+](=O)[O-] | inactive: 0.864%
6 | COc1ccc(C(=O)NCC2(N(C)C)CCCCC2)cc1 | inactive: 1.24%
7 | CN(C)c1ccc(C(=O)NCC2(N(C)C)CCCCC2)cc1 | inactive: -4.31%
8 | CN(C)C1CCCC1OC(=O)C(O)(c1ccccc1)c1ccccc1 (stereo not given) | inactive: -4.44%
9 | Cc1ccccc1C(=O)NCC1(N2CCCCC2)CCCCC1 | inactive: -4.02%
10 | CC(C)N1C(=O)CC2(CCN(CCOC(=O)C(O)(c3ccccc3)c3ccccc3)CC2)C1=O | inactive: 6.8%
11 | COc1cc(SC)ccc1C(=O)NCC1(N(C)C)CCCCC1 | inactive: 2.77%
12 | CCN(CC)CC(C)C(C)OC(=O)C(O)(c1ccccc1)c1ccccc1 (stereo not given) | inactive: -8.04%
13 | Cc1ccc(C(=O)NCC2(N3CCCCC3)CCCCC2)cc1 | inactive: 16.4%
14 | O=C(NCC1(N2CCCCC2)CCCCC1)c1cc([N+](=O)[O-])ccc1Cl | inactive: -5.53%
15 | CN1[C@@H]2CC[C@H]1CC(OC(=O)C(O)(c1ccccc1)c1ccccc1)C2 (stereo not given in full) | inactive: 3.34%
16 | COc1ccc(Br)c(C(=O)NCC2(N3CCCCC3)CCCCC2)c1 | inactive: 6.94%
17 | CN(C)c1cccc(C(=O)NCC2(N(C)C)CCCCC2)c1 | inactive: -17.1%
18 | O=C(OCCN1CCCC1)C(O)(c1ccccc1)c1ccccc1 | inactive: -2.11%
19 | CC(C)Oc1ccc(C(=O)NCC2(N(C)C)CCCCC2)cc1 | inactive: 9.33%
20 | O=C(OC1CN2CCC1CC2)C(CO)(c1ccccc1)c1ccccc1 (stereo not given) | inactive: 0.909%
21 | COc1ccc(Cl)cc1C(=O)NCC1(N(C)C)CCCCC1 | inactive: -5.19%
22 | COc1cccc(C(=O)NCC2(N3CCCCC3)CCCCC2)c1 | inactive: -7.11%
23 | O=C(NCC1(N2CCCCC2)CCCCC1)c1cccc(Cl)c1 | inactive: 9.6%
24 | CN(C)C1(CNC(=O)c2ccc(Br)cc2)CCCCC1 | inactive: 0.719%
25 | COc1cc(C(=O)NCC2(N(C)C)CCCCC2)c([N+](=O)[O-])cc1OC | inactive: 25%
